Measured values: ChEMBL document CHEMBL1126733, “Orally active, nonpeptide vasopressin V1 antagonists. A novel series of 1-(1-substituted 4-piperidyl)-3,4-dihdyro-2(1H)-quinolinone” (J Med Chem, 1993)

The chains behind the UniProt entries cited, without tags or fusion partners.
UniProt P30560, whole entry, looked up: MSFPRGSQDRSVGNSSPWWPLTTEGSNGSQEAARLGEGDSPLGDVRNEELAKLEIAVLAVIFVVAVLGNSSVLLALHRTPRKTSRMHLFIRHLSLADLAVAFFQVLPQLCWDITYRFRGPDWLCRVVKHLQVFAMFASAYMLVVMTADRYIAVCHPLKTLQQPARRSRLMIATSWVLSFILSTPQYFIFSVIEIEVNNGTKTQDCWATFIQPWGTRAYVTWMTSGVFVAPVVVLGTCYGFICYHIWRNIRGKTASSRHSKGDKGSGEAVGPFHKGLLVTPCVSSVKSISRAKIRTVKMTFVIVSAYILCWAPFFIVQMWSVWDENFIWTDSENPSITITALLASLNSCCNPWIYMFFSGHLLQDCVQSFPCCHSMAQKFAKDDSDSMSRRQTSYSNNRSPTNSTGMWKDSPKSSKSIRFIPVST

Biological target: Vasopressin V1a receptor (Rattus norvegicus) (UniProt P30560)
Assay: Inhibition expressed as percent change in diastolic blood pressure increased by AVP (30 milliunits / kg, iv) before and after oral administration at uM/kg
Format: functional, organism-based
Settings: Artery

SMILES: O=CNCCCOc1ccc(C(=O)N2CCC(N3C(=O)CCc4ccccc43)CC2)cc1
- inhibition: 50%
